Results from patent EP4834897A1, “COMPOUNDS WITH TWO AZAHETEROCYCLES SUBSTITUTED ISOINDOLINONE SKELETON AND USES THEREOF” (dated 2026).

Sequences of proteins named here, by UniProt entry; tags and fusion partners are left off.
UniProt Q96SW2, whole entry: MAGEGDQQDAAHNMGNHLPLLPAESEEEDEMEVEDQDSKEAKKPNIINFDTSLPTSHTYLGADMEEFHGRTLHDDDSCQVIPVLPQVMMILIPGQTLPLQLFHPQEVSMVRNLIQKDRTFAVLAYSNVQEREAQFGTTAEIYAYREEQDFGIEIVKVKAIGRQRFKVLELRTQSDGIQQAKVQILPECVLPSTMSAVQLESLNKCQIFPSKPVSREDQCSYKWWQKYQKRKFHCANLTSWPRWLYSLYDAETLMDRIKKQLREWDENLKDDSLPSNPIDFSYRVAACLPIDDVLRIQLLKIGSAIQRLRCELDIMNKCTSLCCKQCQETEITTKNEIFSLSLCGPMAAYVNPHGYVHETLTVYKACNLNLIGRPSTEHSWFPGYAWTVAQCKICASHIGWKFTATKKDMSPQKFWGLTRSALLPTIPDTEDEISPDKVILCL
UniProt Q9UKS7, whole entry: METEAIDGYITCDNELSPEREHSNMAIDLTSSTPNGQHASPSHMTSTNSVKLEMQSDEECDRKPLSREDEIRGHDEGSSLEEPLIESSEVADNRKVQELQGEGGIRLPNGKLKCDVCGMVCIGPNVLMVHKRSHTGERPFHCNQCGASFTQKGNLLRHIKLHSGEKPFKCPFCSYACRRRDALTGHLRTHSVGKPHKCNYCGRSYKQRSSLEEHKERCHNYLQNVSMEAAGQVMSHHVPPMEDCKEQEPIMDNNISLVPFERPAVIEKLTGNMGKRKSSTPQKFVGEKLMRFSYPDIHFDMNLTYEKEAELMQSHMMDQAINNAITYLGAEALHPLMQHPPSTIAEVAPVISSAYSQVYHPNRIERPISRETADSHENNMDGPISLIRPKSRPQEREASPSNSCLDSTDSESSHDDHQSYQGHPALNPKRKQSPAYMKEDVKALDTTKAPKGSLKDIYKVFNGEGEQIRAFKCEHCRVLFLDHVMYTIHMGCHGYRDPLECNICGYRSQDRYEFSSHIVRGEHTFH
UniProt Q9UKT9, whole entry: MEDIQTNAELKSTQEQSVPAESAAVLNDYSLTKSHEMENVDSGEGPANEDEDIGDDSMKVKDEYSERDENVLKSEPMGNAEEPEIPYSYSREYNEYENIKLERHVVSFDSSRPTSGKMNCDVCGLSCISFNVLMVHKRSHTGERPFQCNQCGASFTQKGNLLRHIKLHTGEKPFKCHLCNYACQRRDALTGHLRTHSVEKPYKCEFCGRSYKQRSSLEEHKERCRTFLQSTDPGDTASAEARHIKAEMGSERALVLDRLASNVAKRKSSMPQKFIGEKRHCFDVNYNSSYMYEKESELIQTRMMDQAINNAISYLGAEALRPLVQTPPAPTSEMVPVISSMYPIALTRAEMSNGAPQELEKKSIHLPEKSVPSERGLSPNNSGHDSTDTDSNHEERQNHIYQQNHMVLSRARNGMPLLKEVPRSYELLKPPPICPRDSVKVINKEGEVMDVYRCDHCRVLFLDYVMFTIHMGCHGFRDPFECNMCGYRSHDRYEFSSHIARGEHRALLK
UniProt P30291, whole entry: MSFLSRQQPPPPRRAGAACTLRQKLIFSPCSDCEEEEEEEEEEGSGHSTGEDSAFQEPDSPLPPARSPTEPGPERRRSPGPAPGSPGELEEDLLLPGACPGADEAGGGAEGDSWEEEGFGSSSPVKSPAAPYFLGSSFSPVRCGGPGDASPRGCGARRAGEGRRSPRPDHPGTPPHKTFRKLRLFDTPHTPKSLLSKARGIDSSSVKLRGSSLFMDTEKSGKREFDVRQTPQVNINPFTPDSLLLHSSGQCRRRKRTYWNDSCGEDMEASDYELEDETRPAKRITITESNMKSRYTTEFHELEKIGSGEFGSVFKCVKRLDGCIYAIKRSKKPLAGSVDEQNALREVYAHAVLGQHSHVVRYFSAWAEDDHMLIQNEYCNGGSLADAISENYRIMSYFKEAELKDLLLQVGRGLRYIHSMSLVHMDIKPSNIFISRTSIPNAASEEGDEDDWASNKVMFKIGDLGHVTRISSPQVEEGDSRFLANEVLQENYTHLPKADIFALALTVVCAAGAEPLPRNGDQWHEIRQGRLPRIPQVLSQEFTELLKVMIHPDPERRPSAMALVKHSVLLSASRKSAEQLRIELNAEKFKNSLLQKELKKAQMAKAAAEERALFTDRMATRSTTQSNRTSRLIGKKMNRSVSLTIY
UniProt Q13422, whole entry: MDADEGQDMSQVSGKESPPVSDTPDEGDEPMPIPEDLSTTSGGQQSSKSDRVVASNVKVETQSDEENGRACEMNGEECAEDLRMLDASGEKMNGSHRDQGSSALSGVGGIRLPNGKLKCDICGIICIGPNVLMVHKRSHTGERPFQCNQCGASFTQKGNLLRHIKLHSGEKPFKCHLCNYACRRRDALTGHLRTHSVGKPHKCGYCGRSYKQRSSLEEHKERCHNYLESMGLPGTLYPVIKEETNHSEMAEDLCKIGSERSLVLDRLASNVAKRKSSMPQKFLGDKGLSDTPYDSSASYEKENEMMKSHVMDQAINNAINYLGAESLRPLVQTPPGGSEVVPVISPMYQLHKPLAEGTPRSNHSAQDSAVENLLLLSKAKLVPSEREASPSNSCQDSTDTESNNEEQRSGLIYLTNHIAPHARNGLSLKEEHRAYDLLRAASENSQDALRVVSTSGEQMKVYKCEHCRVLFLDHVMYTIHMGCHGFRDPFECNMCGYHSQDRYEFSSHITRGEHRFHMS
UniProt P15170, whole entry: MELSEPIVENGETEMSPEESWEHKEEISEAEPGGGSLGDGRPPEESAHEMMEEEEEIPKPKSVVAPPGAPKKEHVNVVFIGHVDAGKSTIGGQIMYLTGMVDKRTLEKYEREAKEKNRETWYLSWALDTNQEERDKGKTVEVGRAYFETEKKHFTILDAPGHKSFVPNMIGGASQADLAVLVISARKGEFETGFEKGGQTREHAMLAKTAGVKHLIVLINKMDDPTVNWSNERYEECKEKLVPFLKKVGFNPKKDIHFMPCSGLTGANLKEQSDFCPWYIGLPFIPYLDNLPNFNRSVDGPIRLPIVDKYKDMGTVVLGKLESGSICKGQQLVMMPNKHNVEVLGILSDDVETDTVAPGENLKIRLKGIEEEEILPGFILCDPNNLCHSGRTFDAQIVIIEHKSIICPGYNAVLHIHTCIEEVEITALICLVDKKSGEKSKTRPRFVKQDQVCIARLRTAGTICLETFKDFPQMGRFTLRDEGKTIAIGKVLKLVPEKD
UniProt P48729, whole entry: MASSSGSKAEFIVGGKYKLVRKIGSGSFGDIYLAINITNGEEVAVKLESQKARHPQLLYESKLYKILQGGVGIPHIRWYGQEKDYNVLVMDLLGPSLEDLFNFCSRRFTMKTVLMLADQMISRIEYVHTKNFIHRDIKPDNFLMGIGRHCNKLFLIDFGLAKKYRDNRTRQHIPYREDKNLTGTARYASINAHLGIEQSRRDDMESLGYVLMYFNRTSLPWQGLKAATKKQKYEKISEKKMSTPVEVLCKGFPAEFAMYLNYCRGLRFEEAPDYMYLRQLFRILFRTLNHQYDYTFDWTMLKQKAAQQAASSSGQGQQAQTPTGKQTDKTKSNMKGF
UniProt Q16531, whole entry partner: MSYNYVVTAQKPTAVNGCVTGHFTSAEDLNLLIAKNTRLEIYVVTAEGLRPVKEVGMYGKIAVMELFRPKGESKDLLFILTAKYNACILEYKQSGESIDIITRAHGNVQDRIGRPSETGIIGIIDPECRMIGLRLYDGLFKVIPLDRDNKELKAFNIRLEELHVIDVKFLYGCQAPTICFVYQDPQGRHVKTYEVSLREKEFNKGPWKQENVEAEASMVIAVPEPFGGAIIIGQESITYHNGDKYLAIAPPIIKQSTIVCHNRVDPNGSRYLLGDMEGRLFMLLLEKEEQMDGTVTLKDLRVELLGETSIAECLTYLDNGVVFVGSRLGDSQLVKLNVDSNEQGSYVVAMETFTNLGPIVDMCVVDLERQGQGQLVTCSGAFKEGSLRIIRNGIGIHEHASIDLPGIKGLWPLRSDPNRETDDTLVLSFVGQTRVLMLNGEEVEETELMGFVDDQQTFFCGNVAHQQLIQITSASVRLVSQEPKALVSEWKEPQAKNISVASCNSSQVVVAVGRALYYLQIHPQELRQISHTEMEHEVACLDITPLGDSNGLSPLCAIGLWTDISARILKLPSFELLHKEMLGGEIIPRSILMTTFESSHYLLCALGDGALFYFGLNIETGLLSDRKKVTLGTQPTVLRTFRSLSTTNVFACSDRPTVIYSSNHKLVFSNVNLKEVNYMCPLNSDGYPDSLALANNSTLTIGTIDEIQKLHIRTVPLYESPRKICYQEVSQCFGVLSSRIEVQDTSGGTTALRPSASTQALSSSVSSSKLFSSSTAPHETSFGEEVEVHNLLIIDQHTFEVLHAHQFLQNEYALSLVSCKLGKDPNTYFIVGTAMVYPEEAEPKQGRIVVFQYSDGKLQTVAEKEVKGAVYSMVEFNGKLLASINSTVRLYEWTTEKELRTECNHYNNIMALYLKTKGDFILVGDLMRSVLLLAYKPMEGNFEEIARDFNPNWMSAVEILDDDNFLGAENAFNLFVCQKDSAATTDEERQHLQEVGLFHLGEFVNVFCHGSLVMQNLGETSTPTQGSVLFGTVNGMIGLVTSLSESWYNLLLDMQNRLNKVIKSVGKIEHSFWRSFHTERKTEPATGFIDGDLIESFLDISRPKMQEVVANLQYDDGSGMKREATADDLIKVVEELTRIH

Molecular target: IKZF2 (Homo sapiens, UniProt Q96SW2+Q9UKS7)
Assay: Western blot assay of substrate protein degradation in hPBMCs
Conditions: 24 hours treatment, compounds at 50 nM and 500 nM (concentration behind the class not stated)

Row | SMILES | substrate protein remaining % (IKZF2)
1 | CC1(C)CCC(C(=O)N2CCN(C3CCN(Cc4cccc5c4CN(C4CCC(=O)NC4=O)C5=O)CC3(F)F)CC2)=C(c2ccc(Cl)cc2)C1 (centres unmarked) | B (80%< substrate protein remaining %≤ 100%)
2 | O=C1CCC(N2Cc3cc(CCCN4CCC(N5CCN(C(c6ccccc6)c6ccccn6)CC5)C(F)(F)C4)ccc3C2=O)C(=O)N1 (centres unmarked) | B (80%< substrate protein remaining %≤ 100%)

Molecular target: IKZF3 (Homo sapiens, UniProt Q96SW2+Q9UKT9)
Assay: as above
Conditions: 24 hours treatment, compounds at 50 nM and 500 nM (concentration behind the class not stated)

Row | SMILES | substrate protein remaining % (IKZF3)
3 | CC1(C)CCC(C(=O)N2CCN(C3CCN(Cc4cccc5c4CN(C4CCC(=O)NC4=O)C5=O)CC3(F)F)CC2)=C(c2ccc(Cl)cc2)C1 (centres unmarked) | A (0% ≤ substrate protein remaining % ≤ 80%)
4 | O=C1CCC(N2Cc3cc(CCCN4CCC(N5CCN(C(c6ccccc6)c6ccccn6)CC5)C(F)(F)C4)ccc3C2=O)C(=O)N1 (centres unmarked) | B (80%< substrate protein remaining %≤ 100%)

Molecular target: WEE1 (Homo sapiens, UniProt P30291+Q96SW2)
Assay: as above
Conditions: 24 hours treatment, compounds at 50 nM and 500 nM (concentration behind the class not stated)

Row | SMILES | substrate protein remaining % (WEE1)
5 | CC1(C)CCC(C(=O)N2CCN(C3CCN(Cc4cccc5c4CN(C4CCC(=O)NC4=O)C5=O)CC3(F)F)CC2)=C(c2ccc(Cl)cc2)C1 (centres unmarked) | B (80%< substrate protein remaining %≤ 100%)
6 | O=C1CCC(N2Cc3cc(CCCN4CCC(N5CCN(C(c6ccccc6)c6ccccn6)CC5)C(F)(F)C4)ccc3C2=O)C(=O)N1 (centres unmarked) | B (80%< substrate protein remaining %≤ 100%)

Molecular target: IKZF1 (Homo sapiens, UniProt Q13422+Q96SW2)
Assay: as above
Conditions: 24 hours treatment, compounds at 50 nM and 500 nM (concentration behind the class not stated)

Row | SMILES | substrate protein remaining % (IKZF 1)
7 | CC1(C)CCC(C(=O)N2CCN(C3CCN(Cc4cccc5c4CN(C4CCC(=O)NC4=O)C5=O)CC3(F)F)CC2)=C(c2ccc(Cl)cc2)C1 (centres unmarked) | B (80%< substrate protein remaining %≤ 100%)
8 | O=C1CCC(N2Cc3cc(CCCN4CCC(N5CCN(C(c6ccccc6)c6ccccn6)CC5)C(F)(F)C4)ccc3C2=O)C(=O)N1 (centres unmarked) | B (80%< substrate protein remaining %≤ 100%)

Molecular target: GSPT1 (Homo sapiens, UniProt P15170+Q96SW2)
Assay: as above
Conditions: 24 hours treatment, compounds at 50 nM and 500 nM (concentration behind the class not stated)

Row | SMILES | substrate protein remaining % (GSPT1)
9 | CC1(C)CCC(C(=O)N2CCN(C3CCN(Cc4cccc5c4CN(C4CCC(=O)NC4=O)C5=O)CC3(F)F)CC2)=C(c2ccc(Cl)cc2)C1 (centres unmarked) | A (0% ≤ substrate protein remaining % ≤ 80%)
10 | O=C1CCC(N2Cc3cc(CCCN4CCC(N5CCN(C(c6ccccc6)c6ccccn6)CC5)C(F)(F)C4)ccc3C2=O)C(=O)N1 (centres unmarked) | A (0% ≤ substrate protein remaining % ≤ 80%)

Molecular target: CK1α (Homo sapiens, UniProt P48729+Q96SW2)
Assay: as above
Conditions: 24 hours treatment, compounds at 50 nM and 500 nM (concentration behind the class not stated)

Row | SMILES | substrate protein remaining % (CK1a)
11 | CC1(C)CCC(C(=O)N2CCN(C3CCN(Cc4cccc5c4CN(C4CCC(=O)NC4=O)C5=O)CC3(F)F)CC2)=C(c2ccc(Cl)cc2)C1 (centres unmarked) | A (0% ≤ substrate protein remaining % ≤ 80%)
12 | O=C1CCC(N2Cc3cc(CCCN4CCC(N5CCN(C(c6ccccc6)c6ccccn6)CC5)C(F)(F)C4)ccc3C2=O)C(=O)N1 (centres unmarked) | B (80%< substrate protein remaining %≤ 100%)

Molecular target: CRBN (Homo sapiens, UniProt Q96SW2)
Assay: CRBN binding affinity by HTRF (CEREBLON BINDING kit)
Conditions: CRBN binding, HTRF, compound at 0.5 µM

Row | SMILES | Inhibition Rate at 0.5 µM (%)
13 | CC1(C)CCC(C(=O)N2CCN(C3CCN(Cc4cccc5c4CN(C4CCC(=O)NC4=O)C5=O)CC3(F)F)CC2)=C(c2ccc(Cl)cc2)C1 (centres unmarked) | a5 (53% < a5 ≤ 60%)
14 | O=C1CCC(N2Cc3cc(CCCN4CCC(N5CCN(C(c6ccccc6)c6ccccn6)CC5)C(F)(F)C4)ccc3C2=O)C(=O)N1 (centres unmarked) | a7 (70% < a7 ≤80%)

Same assay, conditions: CRBN binding, HTRF, compound at 2 µM

Row | SMILES | Inhibition Rate at 2 µM (%)
15 | CC1(C)CCC(C(=O)N2CCN(C3CCN(Cc4cccc5c4CN(C4CCC(=O)NC4=O)C5=O)CC3(F)F)CC2)=C(c2ccc(Cl)cc2)C1 (centres unmarked) | a8 (80% < a8 ≤100%)
16 | O=C1CCC(N2Cc3cc(CCCN4CCC(N5CCN(C(c6ccccc6)c6ccccn6)CC5)C(F)(F)C4)ccc3C2=O)C(=O)N1 (centres unmarked) | a8 (80% < a8 ≤100%)

Tested on: TNF-α
Assay: Inflammatory cytokine release from PBMCs induced by PHA (flow cytometry CBA)
Conditions: 0.1 µM, PHA 1 µg/mL, 24 h

Row | SMILES | Inhibition Rate (%) TNF-α
17 | CC1(C)CCC(C(=O)N2CCN(C3CCN(Cc4cccc5c4CN(C4CCC(=O)NC4=O)C5=O)CC3(F)F)CC2)=C(c2ccc(Cl)cc2)C1 (centres unmarked) | IV8 (30% < IV8 ≤ 40%)

Same assay, conditions: 1 µM, PHA 1 µg/mL, 24 h

Row | SMILES | Inhibition Rate (%) TNF-α
18 | CC1(C)CCC(C(=O)N2CCN(C3CCN(Cc4cccc5c4CN(C4CCC(=O)NC4=O)C5=O)CC3(F)F)CC2)=C(c2ccc(Cl)cc2)C1 (centres unmarked) | IV1 0

Tested on: IL-2
Assay: as above
Conditions: 0.1 µM; PBMCs, PHA 1 µg/mL, 24 h

Row | SMILES | Inhibition Rate (%) IL-2
19 | CC1(C)CCC(C(=O)N2CCN(C3CCN(Cc4cccc5c4CN(C4CCC(=O)NC4=O)C5=O)CC3(F)F)CC2)=C(c2ccc(Cl)cc2)C1 (centres unmarked) | IV9 (40% < IV9 ≤ 50%)
20 | O=C1CCC(N2Cc3cc(CCCN4CCC(N5CCN(C(c6ccccc6)c6ccccn6)CC5)C(F)(F)C4)ccc3C2=O)C(=O)N1 (centres unmarked) | IV9 (40% < IV9 ≤ 50%)

Same assay, conditions: 1 µM; PBMCs, PHA 1 µg/mL, 24 h

Row | SMILES | Inhibition Rate (%) IL-2
21 | CC1(C)CCC(C(=O)N2CCN(C3CCN(Cc4cccc5c4CN(C4CCC(=O)NC4=O)C5=O)CC3(F)F)CC2)=C(c2ccc(Cl)cc2)C1 (centres unmarked) | IV8 (30% < IV8 ≤ 40%)
22 | O=C1CCC(N2Cc3cc(CCCN4CCC(N5CCN(C(c6ccccc6)c6ccccn6)CC5)C(F)(F)C4)ccc3C2=O)C(=O)N1 (centres unmarked) | IV1 0

Tested on: IL-10
Assay: as above
Conditions: 0.1 µM; PBMCs, PHA 1 µg/mL, 24 h

Row | SMILES | Inhibition Rate (%) IL-10
23 | CC1(C)CCC(C(=O)N2CCN(C3CCN(Cc4cccc5c4CN(C4CCC(=O)NC4=O)C5=O)CC3(F)F)CC2)=C(c2ccc(Cl)cc2)C1 (centres unmarked) | IV7 (20% < IV7 ≤ 30%)

Same assay, conditions: 1 µM; PBMCs, PHA 1 µg/mL, 24 h

Row | SMILES | Inhibition Rate (%) IL-10
24 | CC1(C)CCC(C(=O)N2CCN(C3CCN(Cc4cccc5c4CN(C4CCC(=O)NC4=O)C5=O)CC3(F)F)CC2)=C(c2ccc(Cl)cc2)C1 (centres unmarked) | IV9 (40% < IV9 ≤ 50%)

Tested on: Human myeloid monocytic leukemia cell (MV-4-11)
Assay: Tumor cell proliferation inhibition (cell viability assay)
Conditions: MV-4-11 cells; 10 nM; 96 hours

Row | SMILES | Inhibition Rate at 10 nM (%)
25 | O=C1CCC(N2Cc3cc(CCCN4CCC(N5CCN(C(c6ccccc6)c6ccccn6)CC5)C(F)(F)C4)ccc3C2=O)C(=O)N1 (centres unmarked) | 1a7 (50% ≤ 1a7 < 60%)

Same assay, conditions: MV-4-11 cells; 500 nM; 96 hours

Row | SMILES | Inhibition Rate at 500 nM (%)
26 | O=C1CCC(N2Cc3cc(CCCN4CCC(N5CCN(C(c6ccccc6)c6ccccn6)CC5)C(F)(F)C4)ccc3C2=O)C(=O)N1 (centres unmarked) | 1a7 (50% ≤ 1a7 < 60%)

Tested on: GM-CSF
Assay: Inflammatory cytokine release from PBMCs induced by PMA + Ionomycin (flow cytometry CBA)
Conditions: 0.1 µM, 24 h

Row | SMILES | Inhibition Rate (%) GM-CSF
27 | CC1(C)CCC(C(=O)N2CCN(C3CCN(Cc4cccc5c4CN(C4CCC(=O)NC4=O)C5=O)CC3(F)F)CC2)=C(c2ccc(Cl)cc2)C1 (centres unmarked) | IV9 (40% < IV9 ≤ 50%)
28 | O=C1CCC(N2Cc3cc(CCCN4CCC(N5CCN(C(c6ccccc6)c6ccccn6)CC5)C(F)(F)C4)ccc3C2=O)C(=O)N1 (centres unmarked) | IV10 (50% < IV 10 ≤ 60%)

Same assay, conditions: 1 µM, 24 h

Row | SMILES | Inhibition Rate (%) GM-CSF
29 | CC1(C)CCC(C(=O)N2CCN(C3CCN(Cc4cccc5c4CN(C4CCC(=O)NC4=O)C5=O)CC3(F)F)CC2)=C(c2ccc(Cl)cc2)C1 (centres unmarked) | IV8 (30% < IV8 ≤ 40%)
30 | O=C1CCC(N2Cc3cc(CCCN4CCC(N5CCN(C(c6ccccc6)c6ccccn6)CC5)C(F)(F)C4)ccc3C2=O)C(=O)N1 (centres unmarked) | IV1 0

Tested on: IL-5
Assay: as above
Conditions: 0.1 µM, 24 h

Row | SMILES | Inhibition Rate (%) IL-5
31 | O=C1CCC(N2Cc3cc(CCCN4CCC(N5CCN(C(c6ccccc6)c6ccccn6)CC5)C(F)(F)C4)ccc3C2=O)C(=O)N1 (centres unmarked) | IV9 (40% < IV9 ≤ 50%)

Same assay, conditions: 1 µM, 24 h

Row | SMILES | Inhibition Rate (%) IL-5
32 | O=C1CCC(N2Cc3cc(CCCN4CCC(N5CCN(C(c6ccccc6)c6ccccn6)CC5)C(F)(F)C4)ccc3C2=O)C(=O)N1 (centres unmarked) | IV9 (40% < IV9 ≤ 50%)
